Measurements from ChEMBL document CHEMBL2417522, “N-aryl-6-methoxy-1,2,3,4-tetrahydroquinolines: a novel class of antitumor agents targeting the colchicine site on tubulin” (Eur J Med Chem, 2013).

Key:
Liver microsomes = assay: Half life in human liver microsomes at 1 uM by LC-MS analysis; assay type: ADME, Microsome
[1] = Aqueous solubility of the compound at pH 7.4 after 4 hrs by HPLC-UV method; assay type: physicochemical; conditions: buffer, pH 7.4, 4 h
In short: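 Solubility at pH 7.4: DMSO stock (1.0 mg/mL) diluted into phosphate buffer, final DMSO 1%; stirred 4 h at rt, centrifuged; saturated supernatant quantified by HPLC–UV against a standard curve (50–0.20 µg/mL in ACN). Triplicate samples.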

## COc1ccc2c(c1)CCCN2c1nc(Cl)nc2ccccc12
Liver microsomes
  t1/2: 10.59 min
[1]
  solubility: 0.45 µg/mL (≈ 1.38 µM)

Converted amounts (≈) assume the structure as drawn.
